# CycPeptMPDB entries from one study

Collected by the curators of CycPeptMPDB (Li et al. 2023) from Townsend et al. 2020, doi:10.26434/chemrxiv.13335941.v1.

PAMPA measures passive passage through an artificial lipid membrane. Permeability is given as log10 of P in cm/s; higher (less negative) is more permeable.

compound | PAMPA (log10 cm/s)
CCCN1CC(=O)N(C)[C@@H](CC(C)C)C(=O)N[C@@H](CC(C)C)C(=O)N2CCC[C@H]2C(=O)N[C@@H](CC(C)C)C(=O)N[C@@H](Cc2ccccc2)C1=O | -5.40
CCCN1CC(=O)N(C)[C@H](CC(C)C)C(=O)N[C@H](CC(C)C)C(=O)N2CCC[C@@H]2C(=O)N[C@H](CC(C)C)C(=O)N[C@@H](Cc2ccccc2)C(=O)N2CCC[C@@H]2C1=O | -5.65
CC(C)C[C@@H]1C(=O)N[C@@H](Cc2ccccc2)CC(=O)N2CCC[C@H]2C(=O)N(C)[C@H](CC(C)C)C(=O)N[C@@H](Cc2ccccc2)C(=O)N[C@@H](C)C(=O)N1C | -6.28
CC(C)C[C@@H]1NC(=O)[C@@H](C)N(C)C(=O)[C@H](Cc2ccccc2)NC(=O)[C@@H](CC(C)C)NC(=O)[C@@H]2CCCN2C(=O)[C@@H](CC(C)C)N(C)C1=O | -5.14
CC(C)C[C@H]1NC(=O)[C@H]2CCCN2C(=O)[C@H](CC(C)C)N(C)C(=O)[C@H](CC(C)C)N(C)C(=O)[C@H](C)N(C)C(=O)[C@@H]2CCCN2C(=O)[C@H](Cc2ccccc2)NC1=O | -5.68
CC(C)C[C@@H]1NC(=O)C[C@H](Cc2ccccc2)NC(=O)[C@H]2CCCN2C(=O)[C@H](Cc2ccccc2)NC(=O)[C@H](CC(C)C)N(C)C(=O)[C@@H]2CCCN2C(=O)[C@H](CC(C)C)NC1=O | -5.74
CC(C)C[C@@H]1NC(=O)[C@@H](C)NC(=O)[C@@H]2CCCN2C(=O)[C@H](Cc2ccccc2)NC(=O)CN(Cc2ccccc2)C(=O)[C@@H]2CCCN2C(=O)[C@@H](CC(C)C)N(C)C1=O | -6.07
CC(C)C[C@@H]1C(=O)N2CCC[C@H]2C(=O)N(Cc2ccccc2)CC(=O)N[C@@H](Cc2ccccc2)C(=O)N2CCC[C@@H]2C(=O)N[C@H](C)C(=O)N(C)[C@@H](CC(C)C)C(=O)N1C | -5.91
CC(C)C[C@H]1NC(=O)[C@@H]2CCCN2C(=O)C[C@H](Cc2ccccc2)NC(=O)[C@H](CC(C)C)N(C)C(=O)[C@@H](C)N(C)C(=O)[C@@H]2CCCN2C(=O)[C@H](Cc2ccccc2)NC1=O | -6.27
CC(C)C[C@@H]1NC(=O)[C@H]2CCCN2C(=O)[C@H](CC(C)C)NC(=O)[C@H](CC(C)C)N(C)C(=O)[C@H](C)N(C)C(=O)[C@H](Cc2ccccc2)NC1=O | -5.29
CC(C)C[C@H]1NC(=O)[C@H]2CCCN2C(=O)CN(Cc2ccccc2)C(=O)[C@@H](CC(C)C)NC(=O)C[C@H](Cc2ccccc2)NC(=O)[C@H]2CCCN2C(=O)[C@H](Cc2ccccc2)NC1=O | -5.78
CC(C)C[C@H]1NC(=O)[C@H](C)N(C)C(=O)[C@H]2CCCN2C(=O)[C@H](Cc2ccccc2)NC(=O)CN(Cc2ccccc2)C(=O)[C@@H]2CCCN2C(=O)CN(Cc2ccccc2)C1=O | -5.87
CC(C)C[C@@H]1NC(=O)[C@H]2CCCN2C(=O)CN(Cc2ccccc2)C(=O)[C@H](CC(C)C)N(C)C(=O)[C@@H](C)NC(=O)[C@H](Cc2ccccc2)NC1=O | -6.49

The first 2 entries again:

| compound | PAMPA (log10 cm/s) |
|---|---|
| CCCN1CC(=O)N(C)[C@@H](CC(C)C)C(=O)N[C@@H](CC(C)C)C(=O)N2CCC[C@H]2C(=O)N[C@@H](CC(C)C)C(=O)N[C@@H](Cc2ccccc2)C1=O | -5.40 |
| CCCN1CC(=O)N(C)[C@H](CC(C)C)C(=O)N[C@H](CC(C)C)C(=O)N2CCC[C@@H]2C(=O)N[C@H](CC(C)C)C(=O)N[C@@H](Cc2ccccc2)C(=O)N2CCC[C@@H]2C1=O | -5.65 |

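Lipid, pH, incubation time, direction and concentration are not recorded in the data file. The list need not hold all peptides of the study. Entries at the database's floor value (log10 P of -10) are not listed.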